Conditions: 1% (1 gram in 99 grams) in caprylic/capric triglyceride, heated to 75° C. for ten minutes, cooled to room temperature

## trifarotene caprylate
  solubility / appearance of premix solution: homogeneous clear solution
